Tested on: human bladder cancer cell lines
Test: Combination of calcitriol with chemotherapeutic agents, bladder cancer cell line proliferation, combination index method
Type: cell-based
Conditions: agent combined with calcitriol; combination index method (CalcuSyn)
Procedure: The following bladder cancer cell lines were used: […] Proliferation was measured after an additional 96 h using CyQuant cell proliferation assay kit. Drug interactions (as shown in FIG. 1) were evaluated by the median-effect/isobologram method using CalcuSyn software (Biosoft, Cambridge, UK). Combination Indices (CI) were calculated using the non-constant ratio combination design, determining synergism or antagonism for each data point. […] Recommended symbols are used for describing synergism or antagonism in drug combination studies analyzed with the combination index method (according to Chou. and Talalay, Adv. Enzyme Regul. 22 (1984) 27-55): […]

mitomycin-c
Synergism or antagonism on bladder cancer cell proliferation in combination with calcitriol: does not result in any additive or synergistic effect

Reference: US20080293647A1, “Combined Use Of Vitamin D Derivatives And Anti-Proliferative Agents For Treating Bladder Cancer” (priority 2004, published 2008)
